Only a selection was taken, and hits are over-represented in it overall.
GIV Gai3 FP – inhibitors of GIV GBA-motif binding to rat Galpha-i3; P08753; Galpha-i3/FITC-GIV peptide fluorescence polarization, 90 min; active compounds read low; scaled: aluminum fluoride 0%, vehicle 100%; percent of control (FP), % (concentration not given with the values); 210,000 compounds, 0.42% hits; AID 1224905;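 active means replicate mean at 85% of control or lower, very high polarization wells dropped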;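 further: wells of about 15 µL received 100 nL stock; the first replicate is given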
HCMV UL50-53 inh – cytomegalovirus nuclear egress complex inhibition. HTRF UL50-UL53 interaction, normalized percent inhibition. inhibition, % (test concentration not listed). 0.15% of 190,000 active; in the data active means inhibition above about 27%, passing the limit was not always enough
GIV-Gai FP conf – GIV-Galpha-i3 inhibition, FP confirmation; shares compounds with GIV Gai3 FP; FITC-GIV peptide binding to Galphai3, fluorescence polarization; active compounds read low; fluorescence polarization, mP at 100 µM; 38% of 580 active; AID 1259350;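 active means inhibition score of 15 or more, meaning 100 minus mean polarization as percent of control over three replicates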;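 further: lower mP means peptide displaced from Galphai3 so more inhibition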
GIV Gai AS conf – GIV-Galpha-i3 inhibition, AlphaScreen confirmation; AlphaScreen counts at 100 µM; AlphaScreen Galphai3-GIV binding, purified proteins, 90 min; active compounds read low; 39% of 580 active; shares compounds with GIV Gai3 FP;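 active means inhibition score at or above a set limit, where the score is 100 minus the three-replicate mean percent of control signal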
An asterisk follows results filed as active; ! = not confirmed by another sample.

What do the screens show for `CCCCC1C(=O)NN(C2CCSC(C)(C)C2)C1=O` (stereo not given)?
HCMV UL50-53 inh: -20

What do the screens show for `C/C=C(\C)CN1CCN(c2ccccc2)CC1`?
GIV Gai3 FP: 108; HCMV UL50-53 inh: 10

Results for C/C(=N/N1CCN(c2ccccc2)CC1)c1ccccc1 ?
GIV Gai3 FP: 85*; HCMV UL50-53 inh: -22; GIV-Gai FP conf: 79; GIV Gai AS conf: 33751

What do the screens show for `O=C(NC1CCCCC1)C1(c2ccc(NS(=O)(=O)c3ccc4c(c3)CCCC4)cc2)CC1`?
GIV Gai3 FP: 102

How did CN1C(=O)C(c2c(-c3ccc(Br)cc3)[nH]c3c2c(=O)[nH]c(=O)n3C)c2ccccc21 (stereo not given) do in these assays?
GIV Gai3 FP: 106; HCMV UL50-53 inh: -12

What do the screens show for `Cc1ccc(OCC(O)CN)c(C)c1` (stereo not given)?
HCMV UL50-53 inh: 8

What do the screens show for `O=c1[nH]c2c(s1)C1c3ccccc3OC3CCCC(S2)C31` (stereo not given)?
GIV Gai3 FP: 72*; HCMV UL50-53 inh: -142; GIV-Gai FP conf: 40*; GIV Gai AS conf: 30587

Results for O=C1Oc2ccccc2C2c3sc(=O)[nH]c3SC(c3ccccc3)C12 (stereo not given) ?
GIV Gai3 FP: 112; HCMV UL50-53 inh: 7

How did CC1CC(C)CN(c2cnnc3c(Cl)cccc23)C1 (stereo not given) do in these assays?
GIV Gai3 FP: 105; HCMV UL50-53 inh: -92

Results for Clc1cccc2c(N3CCCCCC3)cnnc12 ?
GIV Gai3 FP: 83*; HCMV UL50-53 inh: -105; GIV-Gai FP conf: 72; GIV Gai AS conf: 33684

How did O=C(OC1CCCCC1=O)c1ccc(-c2nc3ccccc3s2)s1 (stereo not given) do in these assays?
HCMV UL50-53 inh: -57

Results for CCNC(=O)C1CCN(c2ccc(F)cc2)C1=O (stereo not given) ?
GIV Gai3 FP: 102; HCMV UL50-53 inh: -16

How did Oc1ccc2ccccc2c1C=NCc1cn2ccsc2n1 do in these assays?
HCMV UL50-53 inh: 20

How did Oc1ccc2ccccc2c1C=NCc1cccnc1 do in these assays?
GIV Gai3 FP: 5.4*; HCMV UL50-53 inh: -8; GIV-Gai FP conf: 24*; GIV Gai AS conf: 5898*

Results for CCOC(=O)CC(=O)c1sc(SC)nc1N ?
GIV Gai3 FP: 105; HCMV UL50-53 inh: 5

Filtered by structure, the entries above containing a carbonyl joined to an NH by a bond outside any ring
What do the screens show for `O=C(NC1CCCCC1)C1(c2ccc(NS(=O)(=O)c3ccc4c(c3)CCCC4)cc2)CC1`?
GIV Gai3 FP: 102

Results for CCNC(=O)C1CCN(c2ccc(F)cc2)C1=O (stereo not given) ?
GIV Gai3 FP: 102; HCMV UL50-53 inh: -16

Next section:
What do the screens show for `CCOC(=O)c1c(C)nc2c(c1-c1ccc(OC)c(OC)c1)C(=O)c1ccccc1-2`?
HCMV UL50-53 inh: -22

How did COC(=O)c1ccc(-c2c3c(nc4nc(N)[nH]c(=O)c24)-c2ccccc2C3=O)cc1 do in these assays?
GIV Gai3 FP: 75*; HCMV UL50-53 inh: -75; GIV-Gai FP conf: 75; GIV Gai AS conf: 26602

How did Cn1c(-c2ccccc2)c(/C=C2/C(=O)Oc3ccccc3C2=O)c2ccccc21 do in these assays?
GIV Gai3 FP: 44*; GIV-Gai FP conf: 66; GIV Gai AS conf: 25749

What do the screens show for `Cn1c(-c2ccccc2)c(/C=N/NC(=O)c2cccs2)c2ccccc21`?
HCMV UL50-53 inh: -25

What do the screens show for `Cc1oc2cc(O)ccc2c(=O)c1-c1ccc(Br)cc1`?
HCMV UL50-53 inh: -36

What do the screens show for `CCOC(=O)Nc1ccc2c(CN3CCc4ccccc4C3)cc(=O)oc2c1`?
HCMV UL50-53 inh: -19

How did Cc1cc(C)n2nc(CN(C(=O)CC(C)C)c3ccccc3)nc2n1 do in these assays?
GIV Gai3 FP: 92; HCMV UL50-53 inh: 4; GIV-Gai FP conf: 71; GIV Gai AS conf: 35999

How did CCCC(=O)N(Cc1nc2nc(C)cc(C)n2n1)c1ccccc1 do in these assays?
GIV Gai3 FP: 108; HCMV UL50-53 inh: -3

Results for Cc1occc1C(=O)Oc1ccc2c(c1)OCO2 ?
HCMV UL50-53 inh: -33

Results for O=C(CCN1C(=O)/C(=C/c2ccc3c(c2)OCO3)SC1=S)Nc1nc(-c2ccccc2)cs1 ?
GIV Gai3 FP: 107; HCMV UL50-53 inh: -37

How did O=C(CCN1C(=O)/C(=C/c2ccc3c(c2)OCO3)SC1=S)Nc1nc2ccccc2s1 do in these assays?
GIV Gai3 FP: 72*; HCMV UL50-53 inh: -20; GIV-Gai FP conf: 88; GIV Gai AS conf: 35546

What do the screens show for `CCOc1ccc(NC(=O)Cn2c(=O)n(-c3cccc(C)c3)c(=O)c3c2c2cc(C)ccc2n3C)cc1`?
GIV Gai3 FP: 100; HCMV UL50-53 inh: -28

Results for COC(=O)CSc1ccc2c3c(cccc13)C(=O)c1ccccc1-2 ?
GIV Gai3 FP: 68*; GIV-Gai FP conf: 22*; GIV Gai AS conf: 45087

What do the screens show for `COC(=O)CSc1ncnc2ccccc12`?
HCMV UL50-53 inh: 5

What do the screens show for `Cc1ccc(N2C(=O)CS/C2=N\C(=O)Nc2ccccc2)c(C)c1`?
GIV Gai3 FP: 97; HCMV UL50-53 inh: -9

Some of these compounds in order of SMILES length, smallest number first:
What do the screens show for `Cc1ccc(N2C(=O)CS/C2=N\C(=O)Nc2ccccc2)c(C)c1`?
GIV Gai3 FP: 97; HCMV UL50-53 inh: -9

What do the screens show for `CCOC(=O)Nc1ccc2c(CN3CCc4ccccc4C3)cc(=O)oc2c1`?
HCMV UL50-53 inh: -19

What do the screens show for `CCOC(=O)c1c(C)nc2c(c1-c1ccc(OC)c(OC)c1)C(=O)c1ccccc1-2`?
HCMV UL50-53 inh: -22

Continued:
What do the screens show for `Cc1ccc(Cn2c(=O)n(Cc3ccccc3Cl)c(=O)c3cccnc32)cc1`?
GIV Gai3 FP: 106; HCMV UL50-53 inh: -35

What do the screens show for `Fc1ccc(CN2CCc3nc(N4CCN(c5ccccc5F)CC4)ncc3C2)c(F)c1`?
GIV Gai3 FP: 104

What do the screens show for `O=C1CCCc2nc(N3CCN(c4ccccc4F)CC3)ncc21`?
GIV Gai3 FP: 82*; HCMV UL50-53 inh: -28; GIV-Gai FP conf: 68; GIV Gai AS conf: 44943

How did O=c1cc(Cn2nc3c(-c4nc(-c5ccccc5)no4)cccn3c2=O)nc2ccccn12 do in these assays?
GIV Gai3 FP: 90; GIV-Gai FP conf: 42*; GIV Gai AS conf: 27964

How did CCOC(=O)Cn1nc2c(-c3nc(-c4ccc(Cl)cc4)no3)cccn2c1=O do in these assays?
GIV Gai3 FP: 106

Results for COc1ccc(OC)c(NC(=O)Nc2ccc(Nc3cc(N(C)C)nc(C)n3)cc2)c1 ?
GIV Gai3 FP: 100; HCMV UL50-53 inh: -36

What do the screens show for `Cc1ccc(/C=N/c2sccc2C#N)cc1`?
GIV Gai3 FP: 48*; HCMV UL50-53 inh: -10; GIV-Gai FP conf: 40*; GIV Gai AS conf: 10146*

What do the screens show for `N#Cc1ccsc1/N=C/c1ccccc1`?
GIV Gai3 FP: 106; HCMV UL50-53 inh: -24

How did CNC(=O)c1cn(-c2ccccc2)c(=O)c2ccccc12 do in these assays?
GIV Gai3 FP: 104; HCMV UL50-53 inh: 0

What do the screens show for `CC(=O)n1c(=O)c2ccccc2c(=O)n1-c1ccccc1`?
GIV Gai3 FP: 79*!; HCMV UL50-53 inh: -15; GIV-Gai FP conf: 52*; GIV Gai AS conf: 2364*

What do the screens show for `CCOC(=O)/C(C#N)=C/Nc1nc2ccccc2nc1N1CCOCC1`?
HCMV UL50-53 inh: -9

Results for CN(C)C(=O)C(Sc1nnc(-c2cccs2)n1C1CC1)c1ccccc1 (stereo not given) ?
HCMV UL50-53 inh: -30

Results for O=C(c1ccccc1)C1C(=O)c2ccccc2C1=O ?
GIV Gai3 FP: 97; HCMV UL50-53 inh: -38

How did O=C1c2ccccc2C(=O)C1C(c1ccccc1)C1C(=O)c2ccccc2C1=O do in these assays?
GIV Gai3 FP: 76*; GIV-Gai FP conf: 54; GIV Gai AS conf: 5972*

Results for O=C(O)C(Cc1ccccc1)N1C(=O)/C(=C\c2ccco2)SC1=S (stereo not given) ?
GIV Gai3 FP: 91; HCMV UL50-53 inh: -23

Screening results: PubChem, ICCB-Longwood Screening Facility, Harvard Medical School
